Data from US9447148B2, “Melanocortin-1 receptor-specific cyclic peptides” (Palatin Technologies, Inc., priority 2009, dated 2016).

Chains of the proteins cited; added tags and fusions are not shown. Lines headed by an entry give the natural chain unless they say otherwise; changes in a name come on top.
UniProt Q01726: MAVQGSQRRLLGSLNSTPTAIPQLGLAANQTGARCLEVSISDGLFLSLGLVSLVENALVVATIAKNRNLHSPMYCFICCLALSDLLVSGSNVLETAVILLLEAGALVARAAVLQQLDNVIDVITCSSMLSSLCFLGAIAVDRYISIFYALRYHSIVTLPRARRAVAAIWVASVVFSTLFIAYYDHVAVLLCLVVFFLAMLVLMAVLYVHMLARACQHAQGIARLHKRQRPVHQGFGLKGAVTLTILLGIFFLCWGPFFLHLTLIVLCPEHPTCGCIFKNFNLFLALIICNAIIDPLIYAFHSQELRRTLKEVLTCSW

Experiments:
hMCR-1a = hMCR-1a (Homo sapiens (Human), UniProt Q01726); experiment: Competitive inhibition binding assay using [I125]-NDP-α-MSH, hMCR-1a; details: membrane homogenates of HEK-293 cells, human recombinant receptor, averaged, read-out: MC-1 Ki (average)
Experimental: A competitive inhibition binding assay was performed using membrane homogenates prepared from HEK-293 cells that express recombinant hMCR-1a or hMCR-4 (in each instance where the h prefix refers to human), or alternatively membrane homogenates from B16-F10 mouse melanoma cells containing endogenous murine MCR-1. In the examples that follow, all MCR-1 and MCR-4 values are for human recombinant receptors, unless otherwise noted. Assays were performed in 96 well polypropylene round-bottom plates (VWR catalog number 12777-030). […] After incubation for 90 minutes at 37° C., the assay mixture was filtered onto GF/B Unifilter plates (Perkin-Elmer catalog number 6005177) and washed with 3 mL of ice-cold buffer per well. Filters were air dried and 35 μL of scintillation cocktail added to each well. Plates were counted in a Microbeta counter for bound radioactivity. […] Each assay was conducted in duplicate and the actual mean values are described, with results less than 0% reported as 0%. Ki values for peptides of the present invention were determined using Graph-Pad Prism® curve-fitting software.
(§1) Peptides of the following structures were synthesized and averaged MCR-1 and MCR-4 Ki values were determined as indicated. […] All results are expressed in nM except for Emax values, which are percentage values. Peptides with the captioned primary sequence were synthesized and purified as described in Section 5 above, with the resulting peptide having the structure depicted.

hMCR-1 = hMCR-1 (Homo sapiens (Human), UniProt Q01726); experiment: Assay for agonist activity: intracellular cAMP accumulation in HBL human melanoma cells; type: cell-based; details: HBL cells expressing hMCR-1, averaged, read-out: MC-1 EC50 (average; cAMP HBL)
Experimental: Confluent HBL cells that express hMCR-1 or HEK-293 cells that express recombinant hMCR-4 were detached from culture plates by incubation in enzyme-free cell dissociation buffer. Dispersed cells were suspended in Earle's Balanced Salt Solution containing 10 mM HEPES (pH 7.5), 1 mM MgCl2, 1 mM glutamine, 0.5% albumin and 0.3 mM 3-isobutyl-1-methyl-xanthine (IBMX), a phosphodiesterase inhibitor. The cells were plated in 96-well plates at a density of 0.4×10^5 cells per well for HBL cells and 0.5×10^5 cells per well for HEK-293 cells and pre-incubated for 10 minutes. Cells were exposed for 15 minutes at 37° C. to peptides of the present invention dissolved in DMSO (final DMSO concentration of 1%) at a concentration range of 0.05-5000 nM in a total assay volume of 200 μL. […] Data analysis was performed by nonlinear regression analysis with Graph-Pad Prism® software.
as §1

Ki (hMCR-1a) [pM]	EC50 (hMCR-1) [pM]	SMILES
–	15	CC(=O)N[C@H](Cc1ccccc1)C(=O)N[C@H]1CCC(=O)NCC[C@@H](C(=O)N[C@@H](Cc2c[nH]c3ccccc23)C(N)=O)NC(=O)[C@H](CCCNC(=N)N)NC(=O)[C@@H](Cc2ccccc2)NC(=O)[C@H](Cc2c[nH]cn2)NC1=O [Example 9.12, Ac-D-Phe-cyclo(Glu-His-D-Phe-Arg-Dab)-Trp-NH2]
10	4	CCCC[C@H](NC(C)=O)C(=O)N[C@H]1CCC(=O)NCC[C@@H](C(=O)N[C@@H](Cc2ccc3ccccc3c2)C(N)=O)NC(=O)[C@H](CCCNC(=N)N)NC(=O)[C@@H](Cc2ccccc2)NC(=O)[C@H](Cc2c[nH]cn2)NC1=O [Example 9.10, Ac-Nle-cyclo(Glu-His-D-Phe-Arg-Dab)-Nal 2-NH2]
–	10	CC(=O)N[C@@H](Cc1ccccc1)C(=O)N[C@H]1CCC(=O)NCC[C@@H](C(=O)N[C@@H](Cc2c[nH]c3ccccc23)C(N)=O)NC(=O)[C@H](CCCNC(=N)N)NC(=O)[C@@H](Cc2ccccc2)NC(=O)[C@H](Cc2c[nH]cn2)NC1=O [Example 9.13, Ac-Phe-cyclo(Glu-His-D-Phe-Arg-Dab)-Trp-NH2]
–	5	CCCCC(=O)N[C@H]1CCC(=O)NCC[C@@H](C(=O)N[C@@H](Cc2c[nH]c3ccccc23)C(N)=O)NC(=O)[C@H](CCCNC(=N)N)NC(=O)[C@@H](Cc2ccccc2)NC(=O)[C@H](Cc2c[nH]cn2)NC1=O [Example 9.16, CH3—(CH2)3—C(═O)-cyclo(Glu-His-D-Phe-Arg-Dab)-Trp-NH2]

Further lines, the molecule ahead of its results:

SMILES	Ki (hMCR-1a) [pM]	EC50 (hMCR-1) [pM]
CCCC[C@H](NC(C)=O)C(=O)N[C@H]1CCC(=O)NCC[C@@H](C(=O)N[C@H](Cc2ccc3ccccc3c2)C(N)=O)NC(=O)[C@H](CCCNC(=N)N)NC(=O)[C@@H](Cc2ccccc2)NC(=O)[C@H](Cc2c[nH]cn2)NC1=O [Example 9.11, Ac-Nle-cyclo(Glu-His-D-Phe-Arg-Dab)-D-Nal 2-NH2]	20	5
CCCC[C@H](NC(C)=O)C(=O)N[C@H]1CCNC(=O)CCC(=O)NC[C@@H](C(=O)N[C@@H](Cc2c[nH]c3ccccc23)C(N)=O)NC(=O)[C@H](CCCNC(=N)N)NC(=O)[C@@H](Cc2ccccc2)NC(=O)[C@H](Cc2c[nH]cn2)NC1=O [Example 9.29]	–	6
CCCCCCC(=O)N[C@H]1CCC(=O)NCC[C@@H](C(=O)N[C@@H](Cc2c[nH]c3ccccc23)C(N)=O)NC(=O)[C@H](CCCNC(=N)N)NC(=O)[C@@H](Cc2ccccc2)NC(=O)[C@H](Cc2c[nH]cn2)NC1=O [Example 9.18, CH3—(CH2)5—C(═O)-cyclo(Glu-His-D-Phe-Arg-Dab)-Trp-NH2]	–	3
CCCC[C@H](NC(C)=O)C(=O)N[C@H]1CCC(=O)NCC[C@@H](C(=O)N[C@@H](Cc2cccc3ccccc23)C(N)=O)NC(=O)[C@H](CCCNC(=N)N)NC(=O)[C@@H](Cc2ccccc2)NC(=O)[C@H](Cc2c[nH]cn2)NC1=O [Example 9.30, Ac-Nle-cyclo(Glu-His-D-Phe-Arg-Dab)-Nal 1-NH2]	5	2
CCCC[C@H](NC(C)=O)C(=O)N[C@H]1CCC(=O)NCC[C@@H](C(=O)N[C@H](Cc2cccc3ccccc23)C(N)=O)NC(=O)[C@H](CCCNC(=N)N)NC(=O)[C@@H](Cc2ccccc2)NC(=O)[C@H](Cc2c[nH]cn2)NC1=O [Example 9.9, Ac-Nle-cyclo(Glu-His-D-Phe-Arg-Dab)-D-Nal 1-NH2]	100	8
